Measurements: patent US20250051471A1, “Anti-Abcb1 Antibodies” (WILLIAM ROBERT ARATHOON LIVING TRUST DATED AUGUST 29, 2016, priority 2021, published 2025)

How the values were obtained:
MES-SA/Dx5 cells = test: In vivo anti-tumor effects on MES-SA/Dx5 multidrug resistance xenograft model; parameters: species or system athymic nude mice
Description: MES-SA/Dx5 cells were grown in RPMI-1640 supplemented with 10% FBS and 100 nM doxorubicin. Prior to implant cells were washed three times with D-PBS and resuspended in the same. Resuspended cells were mixed with an equal volume of Matrigel and xenografts were established by sub-cutaneous injection of 0.5×10^6 tumor cells into 5-8-week-old female athymic nude mice. Tumors were measured three times a week using a calibrated digital caliper, and tumor volumes (TV) were calculated as per the formula: TV=/*L*S*S, where L is the long axis and s is the short axis of the tumor. Once tumors reached 100-150 mm^3, mice were randomized into twelve groups of five mice each-(i) Control isotype IgG1 3 mg/kg, (ii) Control isotype IgG1 3 mg/kg and 20 mg/kg of paclitaxel, (iii) KNJYBisP1.1 3 mg/kg, (iv) KNJYBisP1.1 3 mg/kg and 20 mg/kg of paclitaxel, (v and vi) 15D3 HIR2/KT14 KbR1/B1.89v1.huL1(KV2) Bispecific 3 mg/kg, (vii and viii) 15D3 HIR2/KT14 KbR1/B1.89v1.huL1(KV2) Bispecific 3 mg/kg and 20 mg/kg of paclitaxel, (ix) 15D3hmz16-1 KK/KT14 DD/MRK16v4a1 Bispecific 3 mg/kg, (x) 15D3hmz16-1 KK/KT14 DD/MRK16v4a1 Bispecific 3 mg/kg and 20 mg/kg of paclitaxel, (xi) 15D3 HIR2/KT14 KbR1/B1VL6/CDR3v2a Bispecific 3 mg/kg, (xii) 15D3 HIR2/KT14 KbR1/B1VL6/CDR3v2a Bispecific 3 mg/kg and 20 mg/kg of paclitaxel.
Antibody and paclitaxel were dosed intraperitoneally twice a week for two consecutive weeks. […]

human Red Blood Cells = test: Antibody binding to human red blood cells by flow cytometry; format: cell-based; details: species not given
Description: Antibody binding to human and cynomolgus RBC was assessed by flow cytometry. Normal human and cynomolgus whole blood was obtained from BiolVT. RBC were prepared by centrifugation of whole blood aliquots (0.5 mL) for 5 min at 500xg. Supernatant (plasma) was removed, and RBC washed 3 times in D-PBS+1 mM EDTA. After the final wash, the RBC were resuspended in D-PBS+1 mM EDTA to a final volume of 0.5 mL. Washed RBC were then diluted in flow cytometry buffer (D-PBS+2% FBS+0.05% sodium azide) to 2% and dispensed at […] into 96-well plates. An equivalent volume ([…]) of antibody serially diluted in flow cytometry buffer to 2× final was added to the RBC, and the mixture incubated for 1 hour at room temperature. Next, RBC were washed 3 times with flow cytometry buffer and resuspended in 50 μL of Alexa Fluor®647 conjugated Fab fragment goat anti-human IgG diluted 1:200 in flow cytometry buffer. After 20 minutes at room temperature RBC were washed twice, resuspended in flow cytometry buffer and analyzed using an Invitrogen™ Attune™ NXT flow cytometer. […] Left panel, RBC are gated (R1) based on forward and side scatter. Middle panel, a second gate (R2) is applied to eliminate any remaining doublets or aggregates. Right panel, fluorescence of the R2 gated cells is assessed and a final gate (R3) is set using unstained RBC. […]

B1: KBisP1.1: ABCB1XCD47 bispecific antibody 15D3 HC KK/KT14 HC DD/MRK16 LC (antibody)
heavy 1: EVKVVESGGVLVRPGGSLKLSCAASGFTFSRYTMSWVRQTPEKRLEWVATISSGGGNTYYPDSVKGRFTVSRDNAMSSLYLQMSSLRSEDTALYYCARYGAGDAWFAYWGQGTLVTVSSASTKGPSVFPLAPSSKSTSGGTAALGCLVKDYFPEPVTVSWNSGALTSGVHTFPAVLQSSGLYSLSSVVTVPSSSLGTQTYICNVNHKPSNTKVDKKV[human IgG1 Fc with changes omitted]
heavy 2: QVQLVQSGAEVKKPGASVKVSCKASGYTFTNYNMHWVRQAPGQRLEWMGTIYPGNDDTSYNQKFKDRVTITADTSASTAYMELSSLRSEDTAVYYCARGGYRAMDYWGQGTLVTVSSASTKGPSVFPLAPSSKSTSGGTAALGCLVKDYFPEPVTVSWNSGALTSGVHTFPAVLQSSGLYSLSSVVTVPSSSLGTQTYICNVNHKPSNTKVDKKV[human IgG1 Fc with changes omitted]
light: DVLMTQTPVSLSVSLGDQASISCRSSQSIVHSTGNTYLEWYLQKPGQSPKLLIYKISNRFSGVPDRFSGSGSGTDFTLKISRVEAEDLGVYYCFQASHFPRTFGGGTKLEIKRTVAAPSVFIFPPSDEQLKSGTASVVCLLNNFYPREAKVQWKVDNALQSGNSQESVTEQDSKDSTYSLSSTLTLSKADYEKHKVYACEVTHQGLSSPVTKSFNRGEC
MES-SA/Dx5 cells; 3 mg/kg i.p.
  tumor growth inhibition / activity as a single agent: significantly inhibited tumor growth
MES-SA/Dx5 cells; 3 mg/kg plus paclitaxel 20 mg/kg
  tumor growth inhibition in combination with paclitaxel: significantly inhibited tumor growth
Human Red Blood Cells
  binding to red blood cells (in words): No binding
